Publication PMC6271006, “Monoamine Oxidase Inhibitory Constituents of Propolis: Kinetics and Mechanism of Inhibition of Recombinant Human MAO-A and MAO-B” (Molecules, 2014)

Protein sequences, listed by entry. Tags and fused reporters are not part of them.
UniProt P27338, whole entry: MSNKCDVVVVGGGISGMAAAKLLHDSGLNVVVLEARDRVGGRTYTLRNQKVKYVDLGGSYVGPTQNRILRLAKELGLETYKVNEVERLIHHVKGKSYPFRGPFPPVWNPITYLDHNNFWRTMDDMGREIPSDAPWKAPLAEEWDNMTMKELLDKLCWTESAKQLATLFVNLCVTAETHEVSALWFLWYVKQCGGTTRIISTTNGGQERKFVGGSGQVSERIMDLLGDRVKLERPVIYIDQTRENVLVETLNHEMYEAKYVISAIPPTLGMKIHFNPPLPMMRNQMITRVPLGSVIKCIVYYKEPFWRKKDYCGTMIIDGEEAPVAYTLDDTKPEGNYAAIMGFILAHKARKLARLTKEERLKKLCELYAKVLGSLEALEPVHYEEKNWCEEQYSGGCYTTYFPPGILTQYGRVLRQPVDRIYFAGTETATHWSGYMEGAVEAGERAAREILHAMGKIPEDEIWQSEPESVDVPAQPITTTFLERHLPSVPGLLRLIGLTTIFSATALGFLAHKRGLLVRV

Tests used:
[1] = target: T1, recombinant human MAO-B (Homo sapiens, UniProt P27338); test: Enzyme kinetics / inhibition mechanism, MAO-B (Ki, Lineweaver-Burk)
[2] = target: T1, recombinant human MAO-B; test: MAO-B inhibition, kynuramine deamination assay (IC50); assay type: biochemical; set-up: purchased BD Biosciences (Bedford, MA, USA)
Protocol: To investigate the effect of the selected constituents on MAO-A and MAO-B, the kynuramine deamination assay was adapted for 96-well plates as described earlier. A fixed substrate concentration and varying inhibitor concentrations were used to determine the IC50 value at the point where 50% inhibition of the catalytic activity of the enzyme occurred. For MAO-A, the substrate concentration of 80 μM kynuramine was chosen because the apparent KM value for substrate binding reported previously was approximately 40 μM [48]. […]. Similarly, for MAO-B, substrate concentration of 50 μM kynuramine was chosen. The assay was performed with the addition of inhibitor. Inhibition was calculated as percent of product formation compared to the corresponding control (enzyme-substrate reaction) without the inhibitors. The reactions were carried out in 0.1 M potassium phosphate buffer at pH 7.4. […] The formation of 4-hydroxyquinoline was determined fluorometrically by SpectraMax M5 fluorescence plate reader (Molecular Devices, Sunnyvale, CA, USA) with an excitation and emission wavelength of 320 nm and 380 nm, respectively, using the Soft Max Pro program. Appropriate controls with the test compounds, fractions and extracts, where the enzyme or the substrate was added after stopping the reaction were setup simultaneously to check interference with the fluorescence measurements. […]

Structure (SMILES): O=c1c(O)c(-c2ccccc2)oc2cc(O)cc(O)c12 [Galangin, galangin]
- Ki [1]: 2 ± 0.039 µM
- IC50 [2]: 3.65 ± 0.15 µM
